The test addresses Hepatocyte growth factor receptor (Homo sapiens, UniProt P08581).

Sequences of proteins named here, by UniProt entry; tags and fusion partners are left off. A change or cut given only in a name is not applied to a line headed by its entry.
UniProt P08581: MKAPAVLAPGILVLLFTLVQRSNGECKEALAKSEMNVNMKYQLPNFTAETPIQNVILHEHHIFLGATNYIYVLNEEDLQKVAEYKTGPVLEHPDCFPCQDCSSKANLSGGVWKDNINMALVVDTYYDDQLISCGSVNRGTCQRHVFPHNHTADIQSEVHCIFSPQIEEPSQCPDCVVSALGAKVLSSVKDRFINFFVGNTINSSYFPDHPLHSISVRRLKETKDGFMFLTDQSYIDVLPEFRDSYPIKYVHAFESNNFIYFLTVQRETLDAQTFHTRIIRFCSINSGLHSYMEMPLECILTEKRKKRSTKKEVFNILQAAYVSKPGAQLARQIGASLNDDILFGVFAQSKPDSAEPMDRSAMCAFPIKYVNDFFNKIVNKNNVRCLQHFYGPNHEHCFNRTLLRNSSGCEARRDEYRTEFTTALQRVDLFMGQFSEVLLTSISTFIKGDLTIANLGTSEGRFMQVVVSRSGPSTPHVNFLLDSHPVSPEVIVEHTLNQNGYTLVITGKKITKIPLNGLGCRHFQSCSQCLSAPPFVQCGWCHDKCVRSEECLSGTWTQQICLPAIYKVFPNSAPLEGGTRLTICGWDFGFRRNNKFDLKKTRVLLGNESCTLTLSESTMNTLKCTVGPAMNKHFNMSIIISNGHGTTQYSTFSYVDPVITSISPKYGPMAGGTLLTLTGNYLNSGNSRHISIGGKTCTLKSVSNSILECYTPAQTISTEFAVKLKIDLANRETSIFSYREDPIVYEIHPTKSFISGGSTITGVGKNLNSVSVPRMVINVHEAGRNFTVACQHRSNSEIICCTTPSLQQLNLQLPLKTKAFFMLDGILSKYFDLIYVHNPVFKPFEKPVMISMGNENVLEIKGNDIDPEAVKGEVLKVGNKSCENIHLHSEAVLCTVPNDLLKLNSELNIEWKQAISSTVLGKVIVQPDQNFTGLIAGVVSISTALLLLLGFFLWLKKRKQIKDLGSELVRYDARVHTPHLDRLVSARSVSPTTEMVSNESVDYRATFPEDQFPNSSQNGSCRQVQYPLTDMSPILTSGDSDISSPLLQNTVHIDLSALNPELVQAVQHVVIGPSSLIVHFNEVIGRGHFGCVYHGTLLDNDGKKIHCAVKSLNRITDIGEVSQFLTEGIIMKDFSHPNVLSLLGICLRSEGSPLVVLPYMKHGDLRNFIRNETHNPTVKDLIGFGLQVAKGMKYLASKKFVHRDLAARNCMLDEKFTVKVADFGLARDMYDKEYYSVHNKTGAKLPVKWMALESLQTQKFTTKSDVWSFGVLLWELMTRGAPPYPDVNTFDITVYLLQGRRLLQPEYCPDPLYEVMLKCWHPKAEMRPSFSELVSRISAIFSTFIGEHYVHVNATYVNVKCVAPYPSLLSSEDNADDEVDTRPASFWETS

This note sets out measurements from ChEMBL document CHEMBL4680210, “Discovery of 1,6-naphthyridinone-based MET kinase inhibitor bearing quinoline moiety as promising antitumor drug candidate” (Eur J Med Chem, 2020).

With `O=c1c(-c2ccc(F)cc2)c[nH]c2ccnc(Nc3ccc(Oc4ccnc5cc(OCCO)ccc45)c(F)c3)c12`, the IC50 was 6.8 nM.
